# Assay results reported in US20040086946A1, “Methods of isolation of active compounds and activated targets” (priority 2002, published 2004).
# Chains of the proteins cited; added tags and fusions are not shown. Lines headed by an entry give the natural chain unless they say otherwise; changes in a name come on top. A line that says so, or that is headed by a name, gives the form on record, which may keep a tag or linker.
# FcR-MC4R (Homo sapiens, UniProt P12314+P32245), UniProt P12314+P32245, fused: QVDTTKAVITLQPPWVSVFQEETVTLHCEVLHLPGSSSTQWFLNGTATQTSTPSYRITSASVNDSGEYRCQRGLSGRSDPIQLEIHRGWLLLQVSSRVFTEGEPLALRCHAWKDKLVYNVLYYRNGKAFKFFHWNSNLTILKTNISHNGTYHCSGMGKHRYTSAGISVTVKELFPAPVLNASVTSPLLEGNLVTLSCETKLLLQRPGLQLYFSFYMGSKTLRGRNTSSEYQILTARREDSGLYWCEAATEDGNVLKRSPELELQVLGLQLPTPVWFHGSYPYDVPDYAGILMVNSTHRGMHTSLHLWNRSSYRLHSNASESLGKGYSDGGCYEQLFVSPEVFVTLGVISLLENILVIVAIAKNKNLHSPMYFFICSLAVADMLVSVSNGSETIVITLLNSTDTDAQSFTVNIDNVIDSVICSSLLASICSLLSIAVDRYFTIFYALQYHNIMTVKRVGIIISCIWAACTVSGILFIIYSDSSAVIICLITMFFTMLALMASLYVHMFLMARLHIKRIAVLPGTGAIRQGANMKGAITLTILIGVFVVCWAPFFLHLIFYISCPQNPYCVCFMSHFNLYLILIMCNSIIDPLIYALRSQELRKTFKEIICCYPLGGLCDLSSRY
# UniProt P12314: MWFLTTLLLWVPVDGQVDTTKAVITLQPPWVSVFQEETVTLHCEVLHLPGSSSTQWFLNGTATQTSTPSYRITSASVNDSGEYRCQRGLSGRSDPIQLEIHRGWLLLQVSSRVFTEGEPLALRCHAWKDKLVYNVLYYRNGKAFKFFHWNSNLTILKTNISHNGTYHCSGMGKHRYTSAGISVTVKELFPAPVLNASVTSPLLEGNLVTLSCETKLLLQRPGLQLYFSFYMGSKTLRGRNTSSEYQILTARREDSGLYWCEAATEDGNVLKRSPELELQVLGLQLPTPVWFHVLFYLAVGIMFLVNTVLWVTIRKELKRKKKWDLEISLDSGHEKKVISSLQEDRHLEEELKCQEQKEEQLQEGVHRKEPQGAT
# UniProt P32245: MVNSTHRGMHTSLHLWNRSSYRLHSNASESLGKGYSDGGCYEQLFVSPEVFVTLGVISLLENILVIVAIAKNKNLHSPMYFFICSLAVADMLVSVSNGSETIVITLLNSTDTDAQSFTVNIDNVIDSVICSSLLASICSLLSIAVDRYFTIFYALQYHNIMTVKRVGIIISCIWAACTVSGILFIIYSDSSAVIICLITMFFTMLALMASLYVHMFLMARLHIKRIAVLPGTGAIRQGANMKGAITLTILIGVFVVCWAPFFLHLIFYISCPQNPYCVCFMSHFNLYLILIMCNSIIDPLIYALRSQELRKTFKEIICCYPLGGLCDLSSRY
# Biological target: T1, FcR-MC4R (Homo sapiens, UniProt P12314+P32245)
# T1 construct: extracellular domain (residues 1-292, with its own signal peptide) of human Fc-gammaR1 = CD64 (NM_000566); expressed in transfected cells; host or cells: HEK293
# Assay: Activation of FcR-MC4R fusion in transfected HEK293 cells, CRE-luciferase reporter
# Type: cell-based
# Details: with versus without Fc::FcR anchor::dock
substance,measurement,value
His Phe Arg Trp [HFRW],increase in potency to activate MC4R by the addition of the Fc::FcR anchor::dock interaction,≥ 5 order of magnitude
